Laboratory results taken from published antibiotic growth screens (doi:10.1038/s41589-023-01349-8).
Some of the results follow.

What follows are molecules tested on A. baumannii ATCC 17978 (assay: relative growth (fraction of control); higher = less inhibition). Conditions: 50 µM.
For `O=C(NCCO)c1cc2ccccc2oc1=O`, the relative growth was 0.909.
`O=C(NC(Cc1cc(=O)[nH]c2ccccc12)C(=O)O)c1ccc(Cl)cc1` (configuration not stated) gave a relative growth of 0.8.
With `Cc1ncc([N+](=O)[O-])n1C[C@@H](C)O` the relative growth was 1.
`C[N+](C)(C)CCCCNC(=O)[C@@H]1C[C@@H]2C(=O)N3CCC[C@H]3C(=O)N2[C@@H]1c1cccc(OCCO)c1` gave a relative growth of 1.18.
Molecule `COc1cccc(S(=O)(=O)N(C)C[C@@H]2Oc3cc(C#CCC(C)C)ccc3S(=O)(=O)N([C@@H](C)CO)C[C@H]2C)c1` has a relative growth of 1.38.
Work on `Cn1cnc(S(=O)(=O)N2C[C@H](O)COC[C@H]3O[C@H](CC(=O)NCc4ccc(F)cc4)CC[C@@H]32)c1` yielded a relative growth of 1.02.
`COc1cc2c(cc1-c1coc3c4c(c(OC)cc3c1=O)OC(C)(C)CC4)OCO2` was tested, and the relative growth was 0.866.
Work on `COC(=O)/C=C/C(=O)OC` yielded a relative growth of 0.87.
`CN(C)CCCCNC(=O)[C@H]1C[C@H]2C(=O)N[C@@H](Cc3ccccc3)C(=O)N2[C@H]1c1cccc(OCCO)c1` gave a relative growth of 0.924.
Molecule `Cc1noc(C)c1NC(=O)N(C)C[C@@H]1Oc2ncc(C#CCN(C)C)cc2C(=O)N([C@H](C)CO)C[C@@H]1C` has a relative growth of 1.07.
`CNC(=O)C[C@@H]1CC[C@@H]2[C@H](COC[C@@H](O)CN2C(=O)Nc2cccc(OC)c2)O1` showed a relative growth of 0.899.
For `Cc1oc2ccccc2c1-c1csc(-c2ccccc2)n1`, the relative growth was 1.07.
In the case of `CN1CCN(C(=O)C[C@H]2CC[C@H]3[C@@H](COC[C@H](O)CN3Cc3ccc(Oc4ccccc4)cc3)O2)CC1`, the relative growth is reported as 1.15.
With `Cn1cnc(CCNC(=O)C[C@H]2CC[C@@H]3[C@H](COC[C@H](O)CN3C(=O)C3CC3)O2)c1` the relative growth was 1.11.
With `NNC(=O)Oc1ccccc1` the relative growth was 0.976.
`Cc1nc2sccn2c(=O)c1CCN1CCC(=C(c2ccc(F)cc2)c2ccc(F)cc2)CC1` gave a relative growth of 0.982.
With `O=C(C[C@H]1CC[C@H]2[C@@H](COC[C@@H](O)CN2Cc2cc(F)ccc2F)O1)N[C@H]1CCN(Cc2ccccc2)C1` the relative growth was 0.971.
With `Cc1ccc(NC(=O)Cc2coc3ccc(C(C)C)cc23)cc1` the relative growth was 0.772.
In the case of `COCCNC(=O)C[C@@H]1CC[C@H]2[C@@H](COC[C@H](O)CN2C(=O)Nc2ccc3c(c2)OCO3)O1`, the relative growth is reported as 0.945.
With `CCOC(=O)C1=C(C)NC(C)=C(C(=O)OC)C1c1cccc(Cl)c1Cl` (configuration not stated) the relative growth was 0.827.
With `CC(C)(C)OC(=O)CC[C@]1(C(=O)NCc2ccccc2)N=C(c2ccc(OCCCO)cc2)O[C@H]1c1ccccc1` the relative growth was 0.896.
For `CC1(C)C(=O)NCCN1C(=O)Cc1ccccc1`, the relative growth was 1.
For `COC(=O)C1=CO[C@@H](O[C@@H]2O[C@H](CO)[C@@H](O)[C@H](O)[C@H]2O)/C(=C\CO)[C@@H]1CC(=O)OCCc1ccc(O)cc1`, the relative growth was 0.801.
`COc1cccc(NC(=O)N2C[C@@H](O)COC[C@H]3O[C@H](CC(=O)NC4Cc5ccccc5C4)CC[C@@H]32)c1` was tested, and the relative growth was 1.09.
`COc1cccc(NC(=O)N2C[C@@H](O)COC[C@H]3O[C@@H](CC(=O)NCc4ccccc4F)CC[C@@H]32)c1` gave a relative growth of 1.01.
Molecule `O=C(C[C@H]1C=C[C@H](NC(=O)c2ccc(F)cc2)[C@@H](CO)O1)NCc1ccncn1` has a relative growth of 0.958.
Work on `C[C@H](CO)N1C[C@H](C)[C@@H](CN(C)S(=O)(=O)c2ccc(Cl)cc2)OCc2cnnn2CCCC1=O` yielded a relative growth of 0.878.
For `C[C@H](CO)N1C[C@H](C)[C@@H](CN(C)C(=O)c2cccnc2)Oc2cc(C#CC3(O)CCCC3)ccc2S1(=O)=O`, the relative growth was 1.09.
For `CNC[C@@H](O)c1cccc(O)c1`, the relative growth was 1.04.
`CCc1nn(CCCN2CCN(c3cccc(Cl)c3)CC2)c(=O)n1CCOc1ccccc1` was tested, and the relative growth was 0.948.
`Nc1ncnc2c1ncn2CCN1CCCCC1` showed a relative growth of 1.1.
`Cc1ncc([N+](=O)[O-])n1C[C@@H](O)CCl` gave a relative growth of 1.06.
With `O=C(C[C@H]1CC[C@@H]2[C@H](COC[C@H](O)CN2C(=O)c2ccccn2)O1)NC1CCC1` the relative growth was 1.18.
In the case of `CC(=O)O[C@H]1C[C@@]2(C)[C@@H](C[C@@H](O)[C@@H]3[C@@]4(C)CC[C@@H](O)[C@@H](C)[C@@H]4CC[C@@]32C)/C1=C(/CCC=C(C)C)C(=O)O`, the relative growth is reported as 0.457.
For `CC(C)c1cc(=O)n2nc(N)nc2[nH]1`, the relative growth was 0.927.
Work on `C[C@@H](O)C#Cc1ccc2c(c1)O[C@@H](CN(C)C(=O)C1CCCCC1)[C@@H](C)CN([C@@H](C)CO)S2(=O)=O` yielded a relative growth of 1.
In the case of `Cc1cccc(NC(=O)Nc2ccc3c(c2)C(=O)N(C)[C@H]2CC[C@H](CC(=O)NCc4ccccc4Cl)O[C@H]2CO3)c1`, the relative growth is reported as 1.19.
In the case of `COc1ccc([Si](C)(C)[C@@H]2[C@@H](CC(=O)N3Cc4ccccc4C[C@H]3CO)O[C@]3(C(=O)N(Cc4cccc(N5CCC5=O)c4)c4ccccc43)[C@H]2C)cc1`, the relative growth is reported as 0.933.
Molecule `C[C@H]1CN([C@@H](C)CO)C(=O)c2cc(C#CC3CCCC3)cnc2O[C@H]1CN(C)C(=O)Cc1ccccn1` has a relative growth of 1.13.
With `O=S(=O)(c1cccc2cnccc12)N1CCCNCC1` the relative growth was 1.1.
In the case of `COC(=O)c1ccc2c(c1)NC(=O)CO2`, the relative growth is reported as 0.742.
In the case of `COC(=O)CCC(C)[C@H]1CCC2C3C(C[C@H](O)[C@@]21C)[C@@]1(C)CC[C@@H](O)C[C@H]1C[C@H]3O` (some centres not stated), the relative growth is reported as 0.875.
Work on `O=C(NC[C@H]1CCCO1)c1ccc(/C=N/O)nc1` yielded a relative growth of 1.04.
Molecule `C=C[C@@]1(C)CC(=O)[C@@]2(O)[C@](C)(O1)[C@@H](O)[C@@H](O)C1C(C)(C)CC[C@H](O)[C@@]12C` (some centres not stated) has a relative growth of 1.02.
For `CO[C@@H](C)n1cc(Br)c(=O)[nH]c1=O`, the relative growth was 1.03.
`Cc1cc(-c2nnc(N)o2)nn1C` gave a relative growth of 1.09.
For `COC(=O)CN1C(=O)COc2ccc(C)cc21`, the relative growth was 1.05.
For `C[C@@H]1CN([C@@H](C)CO)C(=O)c2cc(C#CCN(C)C)cnc2O[C@H]1CN(C)C(=O)CCN1CCCCC1`, the relative growth was 1.26.
In the case of `O=C(C[C@H]1CC[C@@H](NC(=O)Cc2ccccn2)[C@@H](CO)O1)NCCCN1CCOCC1`, the relative growth is reported as 1.01.
`NC(=O)NC(=O)C[C@H]1Nc2ccccc2NC1=O` showed a relative growth of 1.01.
Work on `Cc1ccc(S[C@]2(C(=O)O)CC(=O)N(Cc3ccccc3Cl)[C@@H]2c2ccc(CO)cc2I)cc1` yielded a relative growth of 1.03.
`CC(=O)Nc1ccc(OC(C)=O)cc1` showed a relative growth of 1.03.
Molecule `CCC1(C)CC(=O)NC1=O` (configuration not stated) has a relative growth of 1.07.
Molecule `Cc1cccc(S(=O)(=O)N2C[C@@H](O)COC[C@H]3O[C@H](CC(=O)NCCCN4CCOCC4)CC[C@@H]32)c1` has a relative growth of 0.98.
`Cc1oc(C(C)(C)C)cc1C(=O)Nc1ccc(C(C)C)cc1` gave a relative growth of 0.977.
`C[N+](C)(CCOc1ccccc1)Cc1ccccc1.O=C([O-])c1cc2ccccc2cc1O` showed a relative growth of 0.859.
`CCN(CC)CC(=O)Nc1c(C)cccc1C.Cl` gave a relative growth of 0.97.
In the case of `O=C(C[C@H]1CC[C@@H]2[C@H](COC[C@H](O)CN2C(=O)c2ccccc2F)O1)N1CCN(c2ccccc2)CC1`, the relative growth is reported as 1.03.
`O=[N+]([O-])c1ccc(O)c2ncccc12` gave a relative growth of 0.157.
`CN(C)Cc1cn(CC[C@@H]2CC[C@H](NS(=O)(=O)c3ccccc3)[C@@H](CO)O2)nn1` was tested, and the relative growth was 1.06.
For `c1ccc(/N=C2\S/C(=N\C3CCCCC3)C3=C2CCCC3)cc1`, the relative growth was 1.11.
`Cc1ccc(S(=O)(=O)NCC[C@@H]2CC[C@H](NS(=O)(=O)c3ccccc3Cl)[C@H](CO)O2)cc1` gave a relative growth of 0.974.
Work on `C/C=C(/C)C(=O)O[C@@H]1[C@H](OC(C)=O)[C@@]2(CO)C(CC1(C)C)C1=CCC3[C@@]4(C)CC[C@H](O[C@@H]5O[C@H](C(=O)O)[C@@H](O[C@@H]6O[C@H](CO)[C@@H](O)[C@H](O)[C@H]6O)[C@H](O)[C@H]5O[C@@H]5O[C@H](CO)[C@@H](O)[C@H](O)[C@H]5O)[C@](C)(CO)C4CC[C@@]3(C)[C@]1(C)C[C@H]2O` (some centres not stated) yielded a relative growth of 0.909.
Work on `O=C(C[C@@H]1CC[C@@H]2[C@H](COC[C@H](O)CN2S(=O)(=O)c2ccccc2)O1)N1CCOCC1` yielded a relative growth of 0.952.
`NNC(=O)c1ccncc1.Nc1ccc(C(=O)O)c(O)c1` was tested, and the relative growth was 0.963.
`O=C1CC[C@]23/C=C/C(=O)NCCCCNCCCNC(=O)/C=C/c4ccc(c2c4)O[C@@H]3C1` gave a relative growth of 0.971.
`CN(C)CCOc1ccc([N+](=O)[O-])cn1` gave a relative growth of 1.03.
Molecule `NC(=O)c1ccccc1NC(=O)CCC(=O)O` has a relative growth of 1.22.
`CC(O)(CC(=O)O)CC(=O)O` showed a relative growth of 0.903.
`CNCCCC1c2ccccc2C=Cc2ccccc21.Cl` gave a relative growth of 1.07.
`COC(=O)[C@@H]1C[C@@H](C#N)N[C@@H]1c1ccccn1` was tested, and the relative growth was 1.04.
For `COc1ccc([Si](C)(C)[C@H]2[C@H](CC(=O)N(CCO)Cc3ccccc3)O[C@@]3(C(=O)N(C)c4c(Br)cc(C)cc43)[C@@H]2C)cc1`, the relative growth was 0.674.
`CC(=O)O[C@@H]1CC2C(C)(C)[C@H](O)CC[C@]2(C)C2CC[C@@]3(C)[C@H](c4ccoc4)OC(=O)C4OC43[C@@]21C` (some centres not stated) was tested, and the relative growth was 0.92.
Molecule `CCC(C)(C)C(=O)O[C@H]1C[C@@H](C)C=C2C=C[C@H](C)[C@H](CC[C@@H]3C[C@@H](O)CC(=O)O3)[C@H]21` has a relative growth of 0.885.
For `C[C@H]1CN([C@@H](C)CO)C(=O)c2cc(-c3cccc(C(=O)N(C)C)c3)cnc2O[C@H]1CN(C)S(=O)(=O)c1cccc(F)c1`, the relative growth was 1.15.
In the case of `O=C(C[C@H]1CC[C@@H](NC(=O)C2CC2)[C@H](CO)O1)NCCCN1CCOCC1`, the relative growth is reported as 1.04.
In the case of `CCCN(CCC)CCc1cccc2c1CC(=O)N2.Cl`, the relative growth is reported as 1.04.
`O=C(C[C@H]1CC[C@H]2[C@@H](COC[C@@H](O)CN2S(=O)(=O)c2ccc(Oc3ccccc3)cc2)O1)NCCN1CCCCC1` showed a relative growth of 0.934.
Molecule `O=C(C[C@@H]1C=C[C@H](NS(=O)(=O)c2ccc(F)cc2)[C@H](CO)O1)N1CCC(Cc2ccccc2)CC1` has a relative growth of 0.796.
For `C[C@@H]1CN([C@@H](C)CO)C(=O)c2cc(C#Cc3ccccc3F)cnc2O[C@H]1CN(C)C(=O)c1ccc2c(c1)OCO2`, the relative growth was 1.05.
For `COc1ccc(CCN2C(=O)[C@@]3(Cc4ccccc42)c2ccccc2C(=O)N(C2CCCCC2)[C@H]3c2ccc(CO)cc2)cc1`, the relative growth was 0.981.
Molecule `COc1ccccc1OCCNCC(O)COc1cccc2[nH]c3ccccc3c12.O=P(O)(O)O` (configuration not stated) has a relative growth of 1.28.
